Earlier results as cited in US20120134978A1, “Cross-Linking of Superoxide Dismutase Monomers” (Brandeis University, priority 2009, published 2012).

Tested on: Amyotrophic Lateral Sclerosis patients
Conditions: ALS patients; cited from earlier work

## Nc1nc2ccc(OC(F)(F)F)cc2s1 [Riluzole]
  effect on patient survival and quality of life: moderate effect on patient survival and quality of life
